We go through 1 compound from ChEMBL document CHEMBL1154768 (J Med Chem, 2009).

Chains of the proteins cited; added tags and fusions are not shown.
UniProt P0DMS8, whole entry: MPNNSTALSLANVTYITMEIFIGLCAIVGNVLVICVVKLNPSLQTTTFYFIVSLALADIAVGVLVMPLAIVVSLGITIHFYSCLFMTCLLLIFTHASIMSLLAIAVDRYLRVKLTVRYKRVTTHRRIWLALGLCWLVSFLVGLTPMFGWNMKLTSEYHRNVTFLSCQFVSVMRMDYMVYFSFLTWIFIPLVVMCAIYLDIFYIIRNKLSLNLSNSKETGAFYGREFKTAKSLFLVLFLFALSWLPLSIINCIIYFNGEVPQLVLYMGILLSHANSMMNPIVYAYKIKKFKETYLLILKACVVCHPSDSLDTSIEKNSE

The assay has as its target Adenosine receptor A3 (Homo sapiens, UniProt P0DMS8). The assay can be described thus: Agonist activity at human recombinant adenosine A3 receptor expressed in CHO cells assessed as inhibition of forskolin-stimulated cAMP production treated 45 mins before forskolin challenge measured after 15 mins by radioimmunoassay relative to NECA. In kind it is functional, cell-based. For orientation: cAMP levels reflect the balance of adenylyl cyclase and phosphodiesterase activity.

pIC50: −log10 of the molar value.

What is called pIC50 is the IC50 on a negative log10 scale, so that one unit is a factor of ten. `CCN1C(=C/C=C/C=C/C2=[N+](CCCCCC(=O)NCCNC(=O)CCC#Cc3nc(NCc4cccc(Cl)c4)c4ncn([C@H]5[C@H](O)[C@H](O)[C@@]6(C(=O)NC)C[C@H]56)c4n3)c3ccccc3C2(C)C)C(C)(C)c2cc(S(=O)(=O)[O-])ccc21`: the pIC50 was 8.96.
